Results on one molecule are retold here after publication PMC6765138 (Nucleic Acids Research, 2019).

By UniProt entry, the sequences of proteins in these tests, tags left out. Residues count along the entry.
UniProt O06581, 81-486: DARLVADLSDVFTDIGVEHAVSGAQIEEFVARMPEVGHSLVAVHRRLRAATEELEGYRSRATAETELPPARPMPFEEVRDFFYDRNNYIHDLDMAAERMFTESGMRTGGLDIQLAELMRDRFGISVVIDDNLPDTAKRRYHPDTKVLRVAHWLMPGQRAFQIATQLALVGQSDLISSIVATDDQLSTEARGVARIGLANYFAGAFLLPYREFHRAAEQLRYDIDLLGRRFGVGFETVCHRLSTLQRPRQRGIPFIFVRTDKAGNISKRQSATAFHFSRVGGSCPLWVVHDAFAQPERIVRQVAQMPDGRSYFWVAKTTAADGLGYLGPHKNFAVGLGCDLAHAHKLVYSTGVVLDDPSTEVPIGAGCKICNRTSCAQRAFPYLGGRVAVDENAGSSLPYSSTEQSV

This assay deals with T1, MtPrpR81–486 (Mycobacterium tuberculosis, UniProt O06581).
T1 construct: gene prpR

Take `[S]12[Fe]3[S]4[Fe]1[S]1[Fe+]2[S]3[Fe+]41` [[4Fe4S] cluster]: the “X-ray crystal structure; UV-visible spectrum; ICP-MS; EPR” value is “The cubane-type [4Fe4S] cluster resides in the C-terminal region”.
